Key:
BCL-2 / PL-Bak = BCL-2 / PL-Bak (Homo sapiens, UniProt P10415); test: BCL-2 co-expressed with PL-Bak in U2OS cells, disruption by small molecules (FIG. 7C); format: cell-based; details: overnight, luminescence
Experimental: Interaction of BCL-2 with a peptide test compound (Bim, Bak, and Bax) was studied.
The native BCL-2 was co-expressed with each of the ProLabel fusions in U2OS cells. Small molecules that are reported to disrupt BCL-2 interactions were then applied to the cells and incubated overnight.
Cells were transduced with the indicated target PL-fusion and the untagged protein Bcl-2. The cells were treated with the indicated compounds overnight and the remaining target-PL fusion was detected by lysing the cells in the presence of EA and substrate. Luminescence was measured 30 minutes later.

By UniProt entry, the sequences of proteins in these tests, tags left out.
UniProt P10415, whole entry: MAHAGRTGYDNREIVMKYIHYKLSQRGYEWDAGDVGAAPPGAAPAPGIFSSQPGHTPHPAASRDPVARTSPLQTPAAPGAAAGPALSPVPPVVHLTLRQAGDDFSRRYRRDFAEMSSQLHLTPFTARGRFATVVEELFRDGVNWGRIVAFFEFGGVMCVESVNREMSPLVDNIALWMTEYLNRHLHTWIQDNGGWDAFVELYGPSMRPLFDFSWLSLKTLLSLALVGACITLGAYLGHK

MEK (58-371)-PL fusion = MEK (58-371)-PL fusion (Homo sapiens, UniProt Q02750); details: CHO cells, over a period of time

## CC1(C)CCC(c2ccc(Cl)cc2)=C(CN2CCN(c3ccc(C(=O)NS(=O)(=O)c4ccc(N[C@H](CCN5CCOCC5)CSc5ccccc5)c(S(=O)(=O)C(F)(F)F)c4)cc3)CC2)C1 [ABT-263]
BCL-2 / PL-Bak
  Top (best-fit): 11081

## N#CC(=C(/N)Sc1ccccc1N)/C(C#N)=C(\N)Sc1ccccc1N [U0126, (2Z,3Z)-2,3-bis(amino(2-aminophenylthio)methylene)succinonitrile]
MEK (58-371)-PL fusion
  signal (MEK-PL fusion) compared to cells incubated with dasatinib: gain in signal

— US8945853B2, “Detection of intracellular binding events by measuring protein abundance” (DiscoveRx Corporation, priority 2012, dated 2015)
